{"source": "patent US20100137403A1", "about": "“METHOD FOR ENHANCING COGNITION OR INHIBITING COGNITIVE DECLINE” (priority 2008, published 2010)", "test_system": "mice", "assay": "Lethality of phenylalkylamine Ca2+ channel blockers in mice", "assay_type": "in vivo", "conditions": "10 mg/kg i.v.", "excerpt": "[…]. The doses administered for these studies were selected to reflect the previously characterized potency of each of the drugs on blocking L-type Ca^2+ channel function. […]."}
{"substance": "gallopamil", "values": [{"measurement": "Deaths (n = 5)", "value": 4}]}
